Reference: PubChem BioAssay AID1850 (Southern Research Specialized Biocontainment Screening …, 2009)
The entries are a selection whose mix differs from that of the whole data set. Potency and affinity values are given separately. Some results for these compounds are left out of this collection, so the calls shown say nothing about other tests. Active and inactive are the calls of the source. How the calls were made is not given here.

assay: Inhibition of PhoP regulon, Salmonella typhi GFP reporter cells, confirmation, 4 h (AID 1850); conditions: Salmonella Typhi PhoP-promoter GFP reporter, fluorescence, at 50 µM, stronger effect = higher value;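 further: 0% = induced wells with vehicle and 100% = uninduced wells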

SMILES | inhibition
O=C(OC1CN2CCC1CC2)C(CO)(c1ccccc1)c1ccccc1 (stereo not drawn) | inactive: 0.69%
COc1ccc(Br)c(C(=O)NCC2(N3CCCCC3)CCCCC2)c1 | inactive: 8.48%
CN(C)c1cccc(C(=O)NCC2(N(C)C)CCCCC2)c1 | inactive: -1.2%
CC(C)Oc1ccc(C(=O)NCC2(N(C)C)CCCCC2)cc1 | inactive: 3.31%
CN(C)C1(CNC(=O)c2ccc(Br)cc2)CCCCC1 | inactive: -4.79%
COc1cc(C(=O)NCC2(N(C)C)CCCCC2)c([N+](=O)[O-])cc1OC | inactive: -7.63%
COc1cccc(C(=O)NCC2(N3CCCCC3)CCCCC2)c1 | inactive: 12%
COc1ccc(Cl)cc1C(=O)NCC1(N(C)C)CCCCC1 | inactive: -1.5%
O=C(NCC1(N2CCCCC2)CCCCC1)c1cccc(Cl)c1 | inactive: 7.89%
Cc1ccccc1C(=O)NCC1(N2CCCCC2)CCCCC1 | inactive: -1.4%
CN(C)c1ccc(C(=O)NCC2(N(C)C)CCCCC2)cc1 | inactive: 2.45%
CN(C)C1CCCC1OC(=O)C(O)(c1ccccc1)c1ccccc1 (stereo not drawn) | inactive: 5.09%
C=CCN1CCN(CCOC(=O)C(O)(c2ccccc2)c2ccccc2)CC1 | inactive: 3.28%
O=C(NCC1(N2CCCCC2)CCCCC1)c1cc(F)c(F)cc1Cl | inactive: 4.28%
CCN1CCCC(OC(=O)C2(O)c3ccccc3C=Cc3ccccc32)C1 (stereo not drawn) | inactive: 5.29%
Cc1cc(C(=O)NCC2(N3CCCCC3)CCCCC2)ccc1[N+](=O)[O-] | inactive: -4.87%
O=C(NCC1(N2CCCCC2)CCCCC1)c1cccc(Br)c1 | inactive: 1.53%
O=C(NCC1(N2CCCCC2)CCCCC1)c1cc([N+](=O)[O-])ccc1Cl | inactive: -7.58%
CN1[C@@H]2CC[C@H]1CC(OC(=O)C(O)(c1ccccc1)c1ccccc1)C2 (stereo partly drawn) | inactive: -0.85%
CC(C)N1C(=O)CC2(CCN(CCOC(=O)C(O)(c3ccccc3)c3ccccc3)CC2)C1=O | inactive: 11.8%
CCN(CC)CC(C)C(C)OC(=O)C(O)(c1ccccc1)c1ccccc1 (stereo not drawn) | inactive: -3.21%
COc1cc(SC)ccc1C(=O)NCC1(N(C)C)CCCCC1 | inactive: -7.38%
Cc1ccc(C(=O)NCC2(N3CCCCC3)CCCCC2)cc1 | inactive: -0.08%
